Amino acid sequences for entries named in this document (tags omitted). A change or cut given only in a name is not applied to a line headed by its entry.
UniProt Q9UQL6: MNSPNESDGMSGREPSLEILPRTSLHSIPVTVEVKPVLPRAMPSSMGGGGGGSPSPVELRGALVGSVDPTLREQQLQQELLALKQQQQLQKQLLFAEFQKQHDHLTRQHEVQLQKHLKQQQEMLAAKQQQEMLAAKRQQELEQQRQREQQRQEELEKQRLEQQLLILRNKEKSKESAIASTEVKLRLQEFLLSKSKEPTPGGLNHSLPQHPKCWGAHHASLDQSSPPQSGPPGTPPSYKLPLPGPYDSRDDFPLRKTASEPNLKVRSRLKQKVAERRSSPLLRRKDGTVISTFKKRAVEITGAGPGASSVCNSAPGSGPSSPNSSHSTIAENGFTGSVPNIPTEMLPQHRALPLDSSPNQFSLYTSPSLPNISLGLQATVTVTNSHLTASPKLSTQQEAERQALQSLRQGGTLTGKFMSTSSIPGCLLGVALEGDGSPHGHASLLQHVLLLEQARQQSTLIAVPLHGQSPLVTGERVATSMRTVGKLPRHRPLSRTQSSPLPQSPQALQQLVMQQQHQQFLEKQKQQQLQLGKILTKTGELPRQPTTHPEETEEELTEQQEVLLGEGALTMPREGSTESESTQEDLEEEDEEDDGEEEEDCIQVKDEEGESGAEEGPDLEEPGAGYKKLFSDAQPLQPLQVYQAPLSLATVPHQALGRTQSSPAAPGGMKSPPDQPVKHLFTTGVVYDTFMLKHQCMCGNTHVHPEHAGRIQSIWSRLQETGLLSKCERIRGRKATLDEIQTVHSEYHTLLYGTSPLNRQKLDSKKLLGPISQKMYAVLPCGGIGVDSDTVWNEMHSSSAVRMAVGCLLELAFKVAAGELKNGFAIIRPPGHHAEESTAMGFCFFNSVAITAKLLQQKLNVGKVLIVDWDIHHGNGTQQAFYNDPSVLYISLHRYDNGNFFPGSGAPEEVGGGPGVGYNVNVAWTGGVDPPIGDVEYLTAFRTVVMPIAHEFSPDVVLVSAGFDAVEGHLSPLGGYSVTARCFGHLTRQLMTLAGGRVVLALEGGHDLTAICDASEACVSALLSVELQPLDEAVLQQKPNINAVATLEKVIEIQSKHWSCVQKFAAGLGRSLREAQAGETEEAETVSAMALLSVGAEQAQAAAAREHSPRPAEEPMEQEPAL
UniProt Q9UKV0: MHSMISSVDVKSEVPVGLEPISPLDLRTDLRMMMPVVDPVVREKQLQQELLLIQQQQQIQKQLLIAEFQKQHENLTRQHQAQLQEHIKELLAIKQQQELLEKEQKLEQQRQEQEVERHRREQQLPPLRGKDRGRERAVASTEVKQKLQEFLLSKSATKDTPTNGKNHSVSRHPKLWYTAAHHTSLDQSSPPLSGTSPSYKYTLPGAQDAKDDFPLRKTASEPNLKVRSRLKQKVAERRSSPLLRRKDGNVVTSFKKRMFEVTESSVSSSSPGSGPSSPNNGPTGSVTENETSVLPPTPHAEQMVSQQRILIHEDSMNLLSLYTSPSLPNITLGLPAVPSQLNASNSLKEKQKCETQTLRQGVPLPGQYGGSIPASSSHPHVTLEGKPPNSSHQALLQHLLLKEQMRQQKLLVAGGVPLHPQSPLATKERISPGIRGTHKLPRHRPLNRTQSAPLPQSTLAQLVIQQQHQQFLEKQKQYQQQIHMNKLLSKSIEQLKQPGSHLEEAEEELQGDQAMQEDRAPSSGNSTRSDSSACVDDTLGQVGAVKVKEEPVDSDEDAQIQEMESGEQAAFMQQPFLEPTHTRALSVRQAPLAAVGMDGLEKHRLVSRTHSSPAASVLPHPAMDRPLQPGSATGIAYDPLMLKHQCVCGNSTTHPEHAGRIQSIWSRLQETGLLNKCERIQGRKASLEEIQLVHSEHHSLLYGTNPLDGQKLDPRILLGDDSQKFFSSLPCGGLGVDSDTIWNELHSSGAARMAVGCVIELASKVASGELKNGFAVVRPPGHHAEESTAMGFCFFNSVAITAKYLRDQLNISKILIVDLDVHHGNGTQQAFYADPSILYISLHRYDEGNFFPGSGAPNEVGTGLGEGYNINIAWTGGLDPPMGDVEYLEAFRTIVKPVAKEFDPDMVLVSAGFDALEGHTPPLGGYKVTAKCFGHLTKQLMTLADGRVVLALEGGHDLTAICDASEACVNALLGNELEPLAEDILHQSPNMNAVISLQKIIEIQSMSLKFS
UniProt Q969S8: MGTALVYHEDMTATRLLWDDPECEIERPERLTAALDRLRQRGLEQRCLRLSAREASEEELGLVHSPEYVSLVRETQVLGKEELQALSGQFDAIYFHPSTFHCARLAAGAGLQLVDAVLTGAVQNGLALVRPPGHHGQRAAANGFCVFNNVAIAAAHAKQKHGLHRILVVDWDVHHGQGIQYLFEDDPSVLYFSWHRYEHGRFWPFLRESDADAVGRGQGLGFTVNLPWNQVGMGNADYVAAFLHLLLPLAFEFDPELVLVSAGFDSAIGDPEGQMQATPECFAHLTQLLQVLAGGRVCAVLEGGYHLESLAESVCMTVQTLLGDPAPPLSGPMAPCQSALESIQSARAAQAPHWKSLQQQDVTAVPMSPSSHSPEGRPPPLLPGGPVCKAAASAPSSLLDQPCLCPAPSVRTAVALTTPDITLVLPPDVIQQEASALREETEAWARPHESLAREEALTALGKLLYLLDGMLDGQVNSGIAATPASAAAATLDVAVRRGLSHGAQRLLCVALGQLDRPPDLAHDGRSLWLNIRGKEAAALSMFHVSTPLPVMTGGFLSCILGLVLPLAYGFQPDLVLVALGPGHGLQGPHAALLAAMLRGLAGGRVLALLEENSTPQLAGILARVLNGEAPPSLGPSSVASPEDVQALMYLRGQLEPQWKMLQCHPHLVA

According to patent US9409858B2, “Selective histone deactylase 6 inhibitors” (H. LEE MOFFITT CANCER CENTER AND RESEARCH INSTITUTE, INC., priority 2012, dated 2016):

Columns and labels:
[1] = tested on: B16 murine melanoma cells; experiment: B16 melanoma cell growth inhibition assay (MTS); assay type: cell-based
HDAC5 = HDAC5 (Homo sapiens (Human), UniProt Q9UQL6); settings: read-out: IC50 HDAC5; Table 3 isoform profile
HDAC9 = HDAC9 (Homo sapiens (Human), UniProt Q9UKV0); settings: read-out: IC50 HDAC9; Table 3 isoform profile
HDAC10 = HDAC10 (Homo sapiens (Human), UniProt Q969S8); settings: read-out: IC50 HDAC10; Table 3 isoform profile

With `CCCCN(Cc1ccc(C(=O)NO)cc1)C(=O)Nc1ccccc1` [Compound 5g, 4-((1-butyl-3-phenylureido)methyl)-N-hydroxybenzamide] the “growth inhibition of B16 melanoma cells (in words)” value [1] was “capable of inhibiting the growth of B16 melanoma cell line”, the IC50 (HDAC5) was 11.7 ± 0.141 µM and the IC50 (HDAC9) was 6.72 ± 1.15 µM. For the same compound, the IC50 (HDAC10) was 7.57 ± 0.481 µM.
